From ChEMBL document CHEMBL4715826, “Selective PPARδ Modulators Improve Mitochondrial Function: Potential Treatment for Duchenne Muscular Dystrophy (DMD)” (ACS Med Chem Lett, 2018)

How the values were obtained:
[1] = target: T1, Peroxisome proliferator-activated receptor delta (Mus musculus) (UniProt P35396); assay: Modulator activity at PPARdelta in mouse primary myoblasts derived from DMD patient assessed as upregulation of ANGPTL4 gene expression at 40 nM measured after 48 hrs; format: tissue-based; settings: Primary myotube, filed as modulator
T1 sequence (whole entry): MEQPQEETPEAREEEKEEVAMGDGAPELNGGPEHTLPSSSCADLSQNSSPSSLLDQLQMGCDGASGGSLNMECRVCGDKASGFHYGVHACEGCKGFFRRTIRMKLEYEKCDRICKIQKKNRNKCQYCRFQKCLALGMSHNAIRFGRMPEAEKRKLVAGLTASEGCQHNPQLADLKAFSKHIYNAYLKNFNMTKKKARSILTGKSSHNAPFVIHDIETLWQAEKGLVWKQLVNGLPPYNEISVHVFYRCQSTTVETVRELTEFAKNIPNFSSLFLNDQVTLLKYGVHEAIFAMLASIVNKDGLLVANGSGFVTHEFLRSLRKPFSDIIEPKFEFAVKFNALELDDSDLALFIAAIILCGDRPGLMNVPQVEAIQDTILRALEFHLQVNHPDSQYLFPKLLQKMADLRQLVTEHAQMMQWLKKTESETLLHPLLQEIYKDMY

[2] = target: T1, Peroxisome proliferator-activated receptor delta (Mus musculus); assay: Modulator activity at PPARdelta in mouse primary myoblasts derived from DMD patient assessed as upregulation of ANGPTL4 gene expression at 4 nM measured after 48 hrs; format: tissue-based; settings: Primary myotube, filed as modulator
[3] = target: Peroxisome proliferator-activated receptor delta (Homo sapiens) (UniProt Q03181); assay: Modulator activity at PPARdelta in human primary myoblasts derived from DMD patient assessed as upregulation of PDK4 gene expression at 40 nM measured after 48 hrs; settings: Primary myotube, filed as modulator
[4] = target: Peroxisome proliferator-activated receptor delta (Homo sapiens) (UniProt Q03181); assay: Modulator activity at PPARdelta in human primary myoblasts derived from DMD patient assessed as upregulation of CPT1a gene expression measured after 48 hrs; settings: Primary myotube, filed as modulator
[5] = target: Peroxisome proliferator-activated receptor delta (Homo sapiens) (UniProt Q03181); assay: Modulator activity at PPARdelta in human primary myoblasts derived from DMD patient assessed as upregulation of ANGPTL4 gene expression measured after 48 hrs; settings: Primary myotube, filed as modulator, dose 0.04-40 nM
[6] = target: Peroxisome proliferator-activated receptor delta (Homo sapiens) (UniProt Q03181); assay: Modulator activity at PPARdelta in human primary myoblasts derived from DMD patient assessed as upregulation of PDK4 gene expression at 4 nM measured after 48 hrs; settings: Primary myotube, filed as modulator
[7] = target: Peroxisome proliferator-activated receptor delta (Homo sapiens) (UniProt Q03181); assay: Modulator activity at PPARdelta in human primary myoblasts derived from DMD patient assessed as upregulation of PDK4 gene expression measured after 48 hrs; settings: Primary myotube, filed as modulator, dose 0.04-40 nM
[8] = target: Peroxisome proliferator-activated receptor delta (Homo sapiens) (UniProt Q03181); assay: Modulator activity at PPARdelta in human primary myoblasts derived from DMD patient assessed as increase in palmitic acid oxidation at 1.2 to 12 nM measured after 48 hrs by Seahorse assay; settings: Primary myotube, filed as modulator, dose 1.2-12 nM

Compound `Cc1cnc(-c2ccc(OC(F)(F)F)cc2)n1Cc1ccccc1OCCC[C@@H](C)CC(=O)O` has an Activity [1] of 143%, an Activity [2] of 143% and an Activity [3] of 146%. For the same compound, the Activity [4] was “Dose-dependent effect”, the Activity [5] was “Dose-dependent effect” and the Activity [6] was 144%. For the same compound, the Activity [7] was “Dose-dependent effect” and the Activity [8] was < 52%.
